Patent US6462016

Experiments:
[1] = target: maxadilan receptor of the rabbit (maxadilan-specific receptor in crude membrane fractions from rabbit brain and rabbit spleen) (rabbit)
[2] = target: maxadilan receptor of the rabbit (maxadilan-specific receptor in crude membrane fractions from rabbit brain and rabbit spleen) (rabbit); assay: ^125I-Max saturation binding and Scatchard plot, rabbit spleen crude membrane fraction
[3] = target: maxadilan receptor of the mouse (in the crude membrane fraction from mouse brain) (mouse); assay: ^125I-Max saturation binding and Scatchard plot, mouse brain crude membrane fraction
[4] = target: maxadilan receptor of cattle (in the crude membrane fraction from bovine brain) (cattle); assay: ^125I-Max saturation binding and Scatchard plot, cattle brain crude membrane fraction
[5] = target: maxadilan receptor of the rabbit (maxadilan-specific receptor in crude membrane fractions from rabbit brain and rabbit spleen) (rabbit); assay: ^125I-Max saturation binding and Scatchard plot, rabbit brain crude membrane fraction
[6] = target: maxadilan receptor of the rat (in the crude membrane fraction from rat brain and on PC-12 cells) (rat); assay: ^125I-Max saturation binding and Scatchard plot, rat brain crude membrane fraction

Substance | IC50 [1] | Bmax [2] | Bmax [3] | Bmax [4] | Bmax [5] | Bmax [6]
variant maxadilan M65 (from UniProt P30659 24-86) (ligand) | 1.7 nM | – | – | – | – | –
maxadilan (recombinant represented by SEQ ID NO: 2, peptide fragment GSIL- bound to the N-terminal cysteine of natural maxadilan) (from UniProt P30659 24-86) (ligand) | 3.6 nM | 9 fmol/mg | 53 fmol/mg | 17 fmol/mg | 30 fmol/mg | 68 fmol/mg
variant maxadilan NSP (from UniProt P30659 29-86) (ligand) | 2 nM | – | – | – | – | –
